The values below come from ChEMBL document CHEMBL4808171, “Structure-Activity Relationship Study and Biological Evaluation of 2-(Disubstituted phenyl)-indole-5-propanoic Acid Derivatives as GPR40 Full Agonists” (J Med Chem, 2021).

The chains behind the UniProt entries cited, without tags or fusion partners. Where a name states a change or a piece, a line headed by the entry shows the natural chain unless it says otherwise.
UniProt P37231: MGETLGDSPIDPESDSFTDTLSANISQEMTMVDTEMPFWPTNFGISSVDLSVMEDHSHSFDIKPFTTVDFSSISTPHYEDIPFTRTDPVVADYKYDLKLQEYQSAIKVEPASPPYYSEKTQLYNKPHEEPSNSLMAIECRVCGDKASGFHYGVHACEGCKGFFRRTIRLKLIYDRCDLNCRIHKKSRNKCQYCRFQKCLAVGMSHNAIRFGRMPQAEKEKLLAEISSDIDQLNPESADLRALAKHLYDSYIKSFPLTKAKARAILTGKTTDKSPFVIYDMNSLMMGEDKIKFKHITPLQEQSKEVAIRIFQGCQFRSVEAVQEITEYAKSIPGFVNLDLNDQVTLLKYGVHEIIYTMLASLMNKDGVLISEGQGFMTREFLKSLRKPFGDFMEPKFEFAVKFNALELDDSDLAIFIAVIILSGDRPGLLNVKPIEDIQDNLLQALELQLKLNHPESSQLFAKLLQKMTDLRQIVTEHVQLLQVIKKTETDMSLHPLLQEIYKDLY
UniProt Q76JU9, whole entry: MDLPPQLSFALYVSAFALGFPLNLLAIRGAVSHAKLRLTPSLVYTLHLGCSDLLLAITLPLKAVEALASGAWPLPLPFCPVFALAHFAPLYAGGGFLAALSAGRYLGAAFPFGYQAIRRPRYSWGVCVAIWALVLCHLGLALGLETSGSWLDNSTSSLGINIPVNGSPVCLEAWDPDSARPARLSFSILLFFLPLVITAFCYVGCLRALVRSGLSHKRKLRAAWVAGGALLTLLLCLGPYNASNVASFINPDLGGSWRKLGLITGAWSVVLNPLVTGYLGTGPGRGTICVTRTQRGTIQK

The target in assay [1] is Peroxisome proliferator-activated receptor gamma (Homo sapiens, UniProt P37231). Nature of the assay: Agonist activity at human PPARgamma expressed in CHO cells assessed as increase in receptor transcriptional activity at 1 uM incubated for 24 hrs by dual luciferase reporter gene assay relative to rosiglitazone. The class given is cell-based.
Assay [2] concerns the target Free fatty acid receptor 1 (Mus musculus) (UniProt Q76JU9). Nature of the assay: Agonist activity at GPR40 in mouse MIN6 cells assessed as fold increase in 17 mM glucose-mediated insulin secretion at 1 to 10 uM incubated for 2 hrs by ELISA relative to control. The class given is functional, cell-based. As to conditions: filed as positive allosteric modulator, dose 1-10 µM. In general terms: An ELISA detects its analyte on a solid surface through an enzyme-linked reagent.

As to `Cc1ccc(C)c(-c2cc3cc(CCC(=O)O)ccc3[nH]2)c1`, in assay [1], the Emax stood at 15.2%. The fold change (FC) in assay [2] is 1.12. As to `Cc1c(Cl)cccc1-c1cc2cc(CCC(=O)O)ccc2[nH]1`, the Emax in assay [1] (filed as agonist) came out at 59.9%.
